Assay: Octanol-water partition coefficient, log P of the compound

N/C(=N\O)c1ncccc1O
logP: -0.14

Source: ChEMBL document CHEMBL3739346, “In silico study on aging and reactivation processes of tabun conjugated AChE” (2015)
